# Experimental data taken from PubChem BioAssay (NCI).
# The entries are a selection whose mix differs from that of the whole data set. The source holds several records for some structures; these can differ, active in one and inactive in another. Active and inactive are the calls of the source. No stated cut-off is given here; in the data, active means growth inhibition above about 70%; inactive means the rest.
# Test: NCI Yeast Anticancer Drug Screen. Data for the wt2 strain (AID 169);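 further: 0% = growth of vehicle-treated yeast cultures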
# Details: S. cerevisiae wt2 strain growth inhibition, stronger effect = higher value
# Method: Growth inhibition of yeast strains with defined genetic alterations is measured as a screen for potential anti-cancer activity. Selected strains with alterations in DNA damage repair or cell cycle control were exposed to compounds and growth inhibition was measured relative to vehicle treated controls. The strain used in this assay is wt2
SMILES,growth inhibition (at 1.2 µM),growth inhibition (at 3.7 µM),growth inhibition (at 11.0 µM),growth inhibition (at 33.0 µM),growth inhibition (at 100.0 µM)
FC1(F)SC2C(C1(F)F)C1(Cl)C(Cl)=C(Cl)C2(Cl)C1(Cl)Cl (stereo not given),inactive: 22%,active: 98%,active: 99%,active: 99%,active: 99%
NC(Cc1cnc[nH]1)C(=O)O (stereo not given),inactive: -13%,inactive: 52%,active: 98%,active: 99%,active: 99%
O=[N+]([O-])c1cc([N+](=O)[O-])c2nsnc2c1,inactive: 13%,inactive: 54%,active: 100%,active: 100%,active: 100%
COc1cccc(C[N+](C)(CCCl)CCCl)c1[N+](=O)[O-],inactive: 13%,inactive: 15%,inactive: 17%,inactive: 19%,inactive: 39%
CN(C)P(=O)(N(C)C)n1c(Nc2ccccc2)nnc1-c1ccccc1,inactive: -41%,inactive: -11%,inactive: -46%,active: 96%,active: 94%
N#Cc1cc([N+](=O)[O-])cc([N+](=O)[O-])c1N,inactive: 8%,inactive: 15%,inactive: 23%,inactive: 39%,inactive: 58%
CC(C)c1nc(Nc2ccccc2)n(P(=O)(N(C)C)N(C)C)n1,inactive: -26%,inactive: -12%,inactive: -5%,inactive: 32%,active: 93%
O=C1OC(C(Cl)(Cl)Cl)Sc2ccccc21 (stereo not given),inactive: -2%,inactive: -2%,inactive: 1%,inactive: 27%,active: 75%
